Reference: patent publication US9498438B2, “Compositions of efavirenz” (The University of Liverpool, priority 2011, dated 2016)

Test: ATP cell viability assay (CellTiter-Glo) cytotoxicity
Type: cell-based
Settings: human, Caco-2 (intestinal) cells; 70% efavirenz loaded; 24 hours incubation
Description: HepG2 (hepatic) and Caco-2 (intestinal) cells were purchased from American Type Tissue Culture (ATCC; USA) and maintained in Dulbecco's modified eagle's medium (DMEM; Sigma; Dorest, Uk) supplemented with 10% fetal bovine serum (FBS; Bio-Whittaker, Berkshire, Uk) for HepG2 and 15% FBS for Caco-2. CEM (lymphocyte) and THP-1 (monocyte) cells were purchased from European Collection of Cell Culture (ECACC; Porton Down, Uk) and grown in RPMI-1640 (Sigma; Dorest, Uk) supplemented with 10% FBS. All cell lines were incubated at 37° C. and 5% CO2 and for adherent cells (HepG2 and Caco-2) were routinely sub-cultured every 4 days when 95% confluent. Suspension cells (CEM and THP-1) were routinely sub-cultured when a density of 1×10^6 cells/ml was achieved. Cell count and viability was determined by Trypan Blue exclusion assay.
HepG2, Caco-2, THP-1, CEM and A-THP-1 cells were separately seeded at a density of 2.5×10^4/100 μl in their appropriate media into each well of a 96 well plate (Nunclon™, Denmark) and incubated for 24 hours at 37° C. and 5% CO2. Media was then aspirated and replaced with media containing 0.1, 1, 10, 100, 500 or 1000 μM, calculated from molarity of efavirenz (145 samples), of each efavirenz dispersion and incubated for a further 24 hours. The same procedure was followed for each individual excipient (23 samples) with concentrations range of 1 μM to 1 M. […]

## O=C1Nc2ccc(Cl)cc2[C@@](C#CC2CC2)(C(F)(F)F)O1 [Aqueous solution, efavirenz]
  IC50 at 24 h: 39 µM
